Amino acid sequences for entries named in this document (tags omitted). Residues count along the entry.
UniProt O00408, 2-941: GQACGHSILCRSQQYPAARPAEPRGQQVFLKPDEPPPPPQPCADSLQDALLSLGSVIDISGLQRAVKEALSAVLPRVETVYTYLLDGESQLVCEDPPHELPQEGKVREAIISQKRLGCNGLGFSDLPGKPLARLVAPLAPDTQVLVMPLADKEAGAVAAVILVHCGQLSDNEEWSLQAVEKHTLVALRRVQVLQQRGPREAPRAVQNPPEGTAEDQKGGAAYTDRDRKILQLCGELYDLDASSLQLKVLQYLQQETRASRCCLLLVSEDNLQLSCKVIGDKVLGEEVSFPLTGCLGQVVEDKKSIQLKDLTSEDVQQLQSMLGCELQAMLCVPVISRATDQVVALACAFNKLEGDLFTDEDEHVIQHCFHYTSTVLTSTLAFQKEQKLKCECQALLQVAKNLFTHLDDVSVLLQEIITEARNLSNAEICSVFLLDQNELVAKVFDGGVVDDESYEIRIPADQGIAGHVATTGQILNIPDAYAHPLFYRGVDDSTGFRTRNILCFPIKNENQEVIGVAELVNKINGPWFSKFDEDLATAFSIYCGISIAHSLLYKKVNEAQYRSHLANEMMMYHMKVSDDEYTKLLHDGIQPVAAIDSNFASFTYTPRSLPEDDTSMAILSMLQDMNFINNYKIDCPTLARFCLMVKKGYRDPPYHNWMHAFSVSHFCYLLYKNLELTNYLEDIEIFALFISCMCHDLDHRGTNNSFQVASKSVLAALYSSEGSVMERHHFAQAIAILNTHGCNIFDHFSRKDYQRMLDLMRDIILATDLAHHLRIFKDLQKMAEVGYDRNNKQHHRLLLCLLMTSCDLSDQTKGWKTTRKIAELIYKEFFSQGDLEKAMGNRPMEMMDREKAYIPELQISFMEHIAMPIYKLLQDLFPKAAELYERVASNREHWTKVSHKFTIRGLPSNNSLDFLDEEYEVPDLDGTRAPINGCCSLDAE

According to patent US11186582B2, “Substituted [1,2,4]triazolo[1,5-a]pyrimidin-7-yl compounds as PDE2 inhibitors” (DART NEUROSCIENCE (CAYMAN) LTD., priority 2014, dated 2021):

biological target: FLAG-tagged PDE2A1 (amino acids 2-941) (Homo sapiens (Human), UniProt O00408); assay: IMAP TR-FRET PDE2A phosphodiesterase enzymatic assay; conditions: not given

SMILES | IC50 [nM]
Cc1cc(C2CN(C(=O)c3ccc(F)c(Cl)c3)CCO2)n2ncnc2n1 (stereo not drawn) [Example 214, 4-[(3-Chloro-4-fluorophenyl)carbonyl]-2-{5-methyl-[1,2,4]triazolo[1,5-a]pyrimidin-7-yl}morpholine] | 100 to 1000
Cc1cc(C2CCCN(Cc3ccc(C#N)cc3)C2)n2ncnc2n1 (stereo not drawn) [Example 177, 4-[(3-{5-Methyl-[1,2,4]triazolo[1,5-a]pyrimidin-7-yl}piperidin-1-yl)methyl]benzonitrile] | 1000 to 10000
Cc1cc(C2CN(C(=O)c3ccn(-c4ccccc4Cl)n3)CCO2)n2ncnc2n1 (stereo not drawn) [Example 381, 4-[1-(2-Chlorophenyl)-1H-pyrazole-3-carbonyl]-2-{5-methyl-[1,2,4]triazolo[1,5-a]pyrimidin-7-yl}morpholine] | 100 to 1000
Cc1cc(C2CCCN(Cc3ccc(Cl)cn3)C2)n2ncnc2n1 (stereo not drawn) [Example 130, 5-Chloro-2-[(3-{5-methyl-[1,2,4]triazolo[1,5-a]pyrimidin-7-yl}piperidin-1-yl)methyl]pyridine] | 1000 to 10000
Cc1cc(C2CCCN(Cc3cccc(C)c3C)C2)n2ncnc2n1 (stereo not drawn) [Example 115, 1-[(2,3-Dimethylphenyl)methyl]-3-{5-methyl-[1,2,4]triazolo[1,5-a]pyrimidin-7-yl}piperidine] | > 10000
Cc1cc(C2CN(C(=O)c3cc(F)cc(Cl)c3)CCO2)n2ncnc2n1 (stereo not drawn) [Example 536, 4-(3-Chloro-5-fluorobenzoyl)-2-{5-methyl-[1,2,4]triazolo[1,5-a]pyrimidin-7-yl}morpholine] | 100 to 1000
Cc1cc(C2CCCN(C(=O)c3c(C)cccc3Cl)C2)n2ncnc2n1 (stereo not drawn) [Example 497, 1-[(2-Chloro-6-methylphenyl)carbonyl]-3-{5-methyl-[1,2,4]triazolo[1,5-a]pyrimidin-7-yl}piperidine] | > 10000
Cc1cc(C2CCCN(Cc3cccc(-n4cccn4)c3)C2)n2ncnc2n1 (stereo not drawn) [Example 77, 3-{5-Methyl-[1,2,4]triazolo[1,5-a]pyrimidin-7-yl}-1-{[3-(1H-pyrazol-1-yl)phenyl]methyl}piperidine] | 100 to 1000
Cc1cc(C2CCCN(Cc3cc(-c4cccnc4)ccc3F)C2)n2ncnc2n1 (stereo not drawn) [Example 26, 3-{4-Fluoro-3-[(3-{5-methyl-[1,2,4]triazolo[1,5-a]pyrimidin-7-yl}piperidin-1-yl)methyl]phenyl}pyridine] | 1000 to 10000
COc1ccc(C)cc1C(=O)N1CCOC(c2cc(C)nc3ncnn23)C1 (stereo not drawn) [Example 542, 4-(2-Methoxy-5-methylbenzoyl)-2-{5-methyl-[1,2,4]triazolo[1,5-a]pyrimidin-7-yl}morpholine] | 100 to 1000
Cc1cc(C2CCCN(C(=O)c3cc(Cl)ccc3F)C2)n2ncnc2n1 (stereo not drawn) [Example 474, 1-[(5-Chloro-2-fluorophenyl)carbonyl]-3-{5-methyl-[1,2,4]triazolo[1,5-a]pyrimidin-7-yl}piperidine] | 100 to 1000
CCOc1cccc(C(=O)N2CCOC(c3cc(C)nc4ncnn34)C2)c1 (stereo not drawn) [Example 230, 4-[(3-Ethoxyphenyl)carbonyl]-2-{5-methyl-[1,2,4]triazolo[1,5-a]pyrimidin-7-yl}morpholine] | 100 to 1000
Cc1cc(C2CCCN(Cc3ccc(N4CCOCC4)cc3)C2)n2ncnc2n1 (stereo not drawn) [Example 43, 4-{4-[(3-{5-Methyl-[1,2,4]triazolo[1,5-a]pyrimidin-7-yl}piperidin-1-yl)methyl]phenyl}morpholine] | > 10000
Cc1cc([C@@H]2CCCN(C(=O)[C@H]3COc4ccccc4C3)C2)n2ncnc2n1 [Example 10, (3R)-1-[(3R)-3,4-Dihydro-2H-1-benzopyran-3-carbonyl]-3-{5-methyl-[1,2,4]triazolo[1,5-a]pyrimidin-7-yl}piperidine] | 1000 to 10000
Cc1cc(C2CN(C(=O)c3cccc(C(F)(F)F)c3)CC(F)(F)C2)n2ncnc2n1 (stereo not drawn) [Example 238, 3,3-Difluoro-5-{5-methyl-[1,2,4]triazolo[1,5-a]pyrimidin-7-yl}-1-{[3-(trifluoromethyl)phenyl]carbonyl}piperidine] | 100 to 1000
Cc1cc([C@@H]2CCCN(Cc3ccc4ccccc4c3)C2)n2ncnc2n1 (single isomer, unassigned) [Example 2] | 100 to 1000
Cc1cc(C2CN(C(=O)c3cccnc3Oc3ccc(Cl)cc3)CC(F)(F)C2)n2ncnc2n1 (stereo not drawn) [Example 266, 2-(4-Chlorophenoxy)-3-[(3,3-difluoro-5-{5-methyl-[1,2,4]triazolo[1,5-a]pyrimidin-7-yl}piperidin-1-yl)carbonyl]pyridine] | 100 to 1000
Cc1cc(C2CCCN(C(=O)c3cc(F)ccc3C)C2)n2ncnc2n1 (stereo not drawn) [Example 441, 1-[(5-Fluoro-2-methylphenyl)carbonyl]-3-{5-methyl-[1,2,4]triazolo[1,5-a]pyrimidin-7-yl}piperidine] | > 10000

same assay, conditions: IMAP TR-FRET, 200 nM FAM-cAMP substrate, 11-point half-log dose-response

SMILES | PDE2 (pIC50)
Cc1cc(C2CN(C(=O)c3cc(F)cc(Br)c3)CC(F)(F)C2)n2ncnc2n1 (stereo not drawn) [Example 258, 1-[(3-Bromo-5-fluorophenyl)carbonyl]-3,3-difluoro-5-{5-methyl-[1,2,4]triazolo[1,5-a]pyrimidin-7-yl}piperidine] | >7
Cc1cc([C@@H]2CN(C(=O)c3ccc(Br)c(Cl)c3)CC(F)(F)C2)n2ncnc2n1 [Example 327, (5S)-1-(4-Bromo-3-chlorobenzoyl)-3,3-difluoro-5-{5-methyl-[1,2,4]triazolo[1,5-a]pyrimidin-7-yl}piperidine] | >7
Cc1cc(C2CCCN(C(=O)c3cnc4ccccc4n3)C2)n2ncnc2n1 (stereo not drawn) [Example 419, 2-[(3-{5-Methyl-[1,2,4]triazolo[1,5-a]pyrimidin-7-yl}piperidin-1-yl)carbonyl]quinoxaline] | >7
Cc1cc([C@@H]2CN(C(=O)c3cc(Br)cc(Br)c3)CC(F)(F)C2)n2ncnc2n1 [Example 275, (5S)-1-(3,5-Dibromobenzoyl)-3,3-difluoro-5-{5-methyl-[1,2,4]triazolo[1,5-a]pyrimidin-7-yl}piperidine] | >7
Cc1cc(C2CCCN(Cc3cc(F)c(Cl)c(F)c3)C2)n2ncnc2n1 (stereo not drawn) [Example 182, 1-[(4-Chloro-3,5-difluorophenyl)methyl]-3-{5-methyl-[1,2,4]triazolo[1,5-a]pyrimidin-7-yl}piperidine] | >7
Cc1cc(C2CN(C(=O)c3ccc4occc4c3)CC(F)(F)C2)n2ncnc2n1 (stereo not drawn) [Example 499, 1-(1-Benzofuran-5-carbonyl)-3,3-difluoro-5-{5-methyl-[1,2,4]triazolo[1,5-a]pyrimidin-7-yl}piperidine] | >7
Cc1cc([C@@H]2CN(C(=O)c3ccc(C4CC4)c(Cl)c3)CCO2)n2ncnc2n1 [Example 330, (2S)-4-(3-Chloro-4-cyclopropylbenzoyl)-2-{5-methyl-[1,2,4]triazolo[1,5-a]pyrimidin-7-yl}morpholine] | >7
Cc1cc([C@@H]2CN(C(=O)[C@H]3COc4ccccc4C3)CCO2)n2ncnc2n1 [Example 375, (2S)-4-[(3R)-3,4-Dihydro-2H-1-benzopyran-3-carbonyl]-2-{5-methyl-[1,2,4]triazolo[1,5-a]pyrimidin-7-yl}morpholine] | >7
COc1cccc(-c2ncc(CN3CCCC(c4cc(C)nc5ncnn45)C3)s2)c1 (stereo not drawn) [Example 197, 1-{[2-(3-Methoxyphenyl)-1,3-thiazol-5-yl]methyl}-3-{5-methyl-[1,2,4]triazolo[1,5-a]pyrimidin-7-yl}piperidine] | >7
